Where two headings read alike, the source gives them in different places.
What was measured:
[1] = tested on: human colon cancer cell line SW620; conditions: for Tumor Volume: A01S 420 mg/kg iv QW × 4
[2] = tested on: human triple-negative breast cancer cell line MDA-MB-231; assay: In vivo pharmacodynamic study on MDA-MB-231 tumor (Example 24); conditions: A01S 240 mg/kg iv QW × 3
Experimental: One week after the last administration, tumors were taken from all the mice and weighed.
The clinical symptoms observed during the experiment were recorded in the raw data. Tumor volume was calculated by the following formula: […]
Relative tumor proliferation rate (T/C (%)) represents a ratio in percentage of relative tumor volumes or tumor weights of a treatment group and a control group at a time point, which was calculated by the following formula: […]
Relative tumor inhibition rate (TGI (%)) was calculated by the following formula: […]

[3] = tested on: human colon cancer cell line HCT116; conditions: A01S 450 mg/kg iv QW × 4
Description: One week after the last dose, tumors were taken from all mice, weighed, and photographed.

[4] = tested on: human ovarian cancer cell line SKOV-3; conditions: A01S 450 mg/kg iv QW × 4
Description: SKOV-3 tumor masses were subcutaneously inoculated to 80 BALB/c nude mice.

Substance: A01S: human serum albumin (Guang Dong Shuang Lin Bio-Pharmacy) used as negative control [Example A01S]
- Tumor Volume (mm^3) D 13 ([1]; 420 mg/kg, D 13): 130 ± 17 mm^3
- RTV (D 41) ([1]; 420 mg/kg, D 41): 18.75 ± 2.38
- T/C (%) RTV ([1]; 420 mg/kg, D 41): 114%
- T/C (%) TW ([1]; 420 mg/kg, D 41): 119%
- Tumor Volume (mm^3) D 41 ([1]; 420 mg/kg, D 41): 2364 ± 331 mm^3
- Tumor Weight (mg) (D 41) ([1]; 420 mg/kg, D 41): 2089 ± 304 mg
- Tumor Volume ([1]; D13): 130 ± 17 mm^3
- Tumor Volume ([1]; D16): 227 ± 34 mm^3
- Tumor Volume ([1]; D20): 377 ± 49 mm^3
- Tumor Volume ([1]; D23): 578 ± 78 mm^3
- Tumor Volume ([1]; D27): 892 ± 132 mm^3
- Tumor Volume ([1]; D30): 1129 ± 170 mm^3
- Tumor Volume ([1]; D34): 1434 ± 210 mm^3
- Tumor Volume ([1]; D37): 1772 ± 262 mm^3
- Tumor Volume ([1]; D41): 2364 ± 331 mm^3
- T/C (%) RTV [2]: 109%
- T/C (%) TW [2]: 98%
- Tumor Volume ([2]; D16): 145 ± 27 mm^3
- RTV ([2]; D33): 20.67 ± 2.65
- Tumor Volume ([2]; D33): 2811 ± 432 mm^3
- Tumor Weight ([2]; D33): 2399 ± 304 mg
- T/C (%) RTV [3]: 89%
- T/C (%) TW [3]: 68%
- Tumor Volume ([3]; D15): 117 ± 14 mm^3
- Tumor Volume ([3]; D19): 184 ± 23 mm^3
- Tumor Volume ([3]; D22): 244 ± 36 mm^3
- Tumor Volume ([3]; D26): 403 ± 37 mm^3
- Tumor Volume ([3]; D29): 521 ± 28 mm^3
- Tumor Volume ([3]; D33): 723 ± 41 mm^3
- Tumor Volume ([3]; D36): 794 ± 54 mm^3
- Tumor Volume ([3]; D40): 863 ± 57 mm^3
- RTV ([3]; D 43): 11.22 ± 1.87
- Tumor Volume ([3]; D 43): 1176 ± 77 mm^3
- Tumor Weight ([3]; D 43): 982 ± 78 mg
- T/C (%) RTV [4]: 130%
- T/C (%) TW [4]: 149%
- Tumor Volume ([4]; D14): 163 ± 17 mm^3
- Tumor Volume ([4]; D21): 458 ± 58 mm^3
- Tumor Volume ([4]; D25): 708 ± 89 mm^3
- Tumor Volume ([4]; D28): 857 ± 91 mm^3
- Tumor Volume ([4]; D32): 1199 ± 149 mm^3
- Tumor Volume ([4]; D35): 1607 ± 249 mm^3
- Tumor Volume ([4]; D39): 2206 ± 360 mm^3
- RTV ([4]; D 42): 18.75 ± 3.69
- Tumor Volume ([4]; D 42): 2933 ± 513 mm^3
- Tumor Weight ([4]; D 42): 2611 ± 477 mg

From patent US12370187B2, “Composition containing antitumor drug, and preparation method thereof and use thereof” (KUNSHAN XINYUNDA BIOTECH CO., LTD., priority 2021, dated 2025)
